Only some compounds are listed: those with a hit (about 3.7% of all), similar ones and a draw of the others.
Nrf2 activator: activates Nrf2 signaling | AREc32 ARE-luciferase reporter (MCF7-derived line), luminescence, 24 h | Potency, µM (series often up to 46.1 µM), without a hit: at the top dose activation, most hits filed as activators | hit rate 0.31% among 410,000 | AID 624171; also: potency is read from the fitted curve at half-maximal effect; % of control where 0% means no effect; nearly all actives have a fitted effect of over 65% in size
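AREc32 cells carrying an ARE-driven firefly luciferase reporter were seeded at 1000 cells/well in OPTI-MEM with 5% FBS, then exposed to compound for 24 hr at 37 deg C. Luminescence was read with Steady-Glo after 30 min at RT.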
IL-2 act: IL-2 activation; hit rate 0.065% among 360,000; IL-2 activation reporter assay, cell-based qHTS; stimulated with anti-CD3/CD4/CD28 beads; in transgenic mouse T cells; activation, % (series mostly up to about 46 µM); in the data active = activation above about 50%; inconclusive = mostly about 30% to 49%; also: 0% is about no effect
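Quantitative HTS in unstimulated transgenic mouse T cells, with memory T cells as non-tolerant control and PMA/ionomycin as tolerance-bypass control. Compound pretreatment lasted 60 minutes before 18 h bead stimulation; EGFP/DsRed fluorescence read.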
miR-21 FLuc: miR-21 reporter, rising signal | AID 2288 | HeLa miR-21 FLuc reporter, luciferase, 48 h | 340,000 tested, under 10 active | Potency, µM (titrated, usually from 38.3 µM), for the others: at the top dose reporter change, positive = more light; active = well fitted rising curve with a large enough effect; inconclusive = small, poorly fitted or top-dose-only effect; inactive = no such curve, though single readings can be large or run the other way;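 also: % of control where 0% means no effect; miR-21 action dims this reporter so a rising signal means less miR-21 action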
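Compounds were titrated across several concentrations (up to approximately 40 uM) and incubated 48 hours with HeLa miR-21-FLuc reporter cells (miR-21 target sequence downstream of FLuc, endogenous miR-21). Readout was firefly luciferase luminescence after lytic detection reagent.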
Nrf2 inh: blocks Nrf2 signaling. hit rate 2.1% among 360,000. A549 ARE-Fluc reporter, luciferase luminescence, 18-24 h. Potency, µM (titrated, usually from 46 µM), for inactives: at the top dose activity change, negative = inhibition, most hits filed as inhibitors; also: potency is read from the fitted curve at half-maximal effect; % is scaled to controls: 0 for no effect and ±100 for the full control effect; nearly all actives have a fitted effect of over 60% in size
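Nrf2 activity is the BugLite luminescence, read 15 min after reagent at room temperature, following CellTiter-Fluor cytotoxicity readout (30 min, 37C). Compound titrations were applied for 18-24 h to 5000 A549 ARE_Fluc cells/well in 5% FBS OPTI-MEM.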
ClpP mod: qHTS Assay for Activators of ClpP | ATP-dependent Clp protease proteolytic subunit (Bacillus subtilis (strain 168)), P80244 | purified B. subtilis ClpP, FRET peptide cleavage, 20 min | Potency, µM (doses to about 57.5 µM), without a hit: top-dose activity change, negative = active | hit rate 1.9% among 340,000; active = well fitted falling curve with a large enough effect; inconclusive = small, poorly fitted or top-dose-only effect; inactive = no such curve, though single readings can be large or run the other way; also: potency is read from the fitted curve at half-maximal effect; the source files actives as falling curves though it sought activators and does not explain the sign; nearly all actives have a fitted effect of over 65% in size
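FRET quenching reversal measured ClpP activation: 10 microg/mL B. subtilis ClpP at pH 8 with the FRET-FV decapeptide, read at 430 nm after 320 nm excitation. The 20-min minus 0-min signal was scaled between DMSO/no-enzyme wells and ADEP (5.8 microM final).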
A549 tox: kills or reduces viability of A549 cells in Nrf2 counter-screen; Potency, µM (top dose mostly 46 µM), for inactives: at the top dose activity change, negative = cytotoxicity, actives largely listed as inhibitors; A549 ARE-Fluc cells, CellTiter-Fluor viability, 18-24 h; hit rate 0.16% among 390,000; AID 504648; also: potency is read from the fitted curve at half-maximal effect; % is scaled to controls: 0 for no effect and ±100 for the full control effect
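A549 ARE-Fluc cells in 5% FBS OPTI-MEM, 5000 cells/well, rested 2 h then exposed to compounds in concentration-response for 18-24 h at 37 °C. Viability by CellTiter-Fluor fluorescence (Ex 405/Em 525) after 30 min; luciferase luminescence (BugLite, 15 min, RT) read afterwards.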
Numbers without * were called inactive; ? = inconclusive; · = not tested or not shown. Unless noted, calls follow the shape of the dose curve; as a rule, active = well fitted curve in the direction sought with a large enough effect; inconclusive = small, poorly fitted or top-dose-only effect, or another doubt; inactive = no such curve, though single readings can be large; an effect the other way counts as inactive or inconclusive.

Sequences of proteins named here, by UniProt entry; tags and fusion partners are left off.
ATP-dependent Clp protease proteolytic subunit (Bacillus subtilis (strain 168)), P80244, UniProt P80244, whole entry, looked up: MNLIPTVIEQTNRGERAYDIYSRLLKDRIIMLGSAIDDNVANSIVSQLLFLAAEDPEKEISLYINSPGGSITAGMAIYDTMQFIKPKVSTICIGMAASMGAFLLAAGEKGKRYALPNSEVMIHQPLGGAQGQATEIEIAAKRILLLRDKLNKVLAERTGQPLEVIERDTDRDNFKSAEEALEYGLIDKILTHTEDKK

Values run as follows: Nrf2 activator, IL-2 act, miR-21 FLuc, Nrf2 inh, ClpP mod, A549 tox
- Cc1cc(-c2ccc(C)c(S(=O)(=O)N3CCN(c4ccc(F)cc4)CC3)c2)on1
  -0.3%, -2.6, -0.4%, 8.2µM*, ·, -5.9%
- Cc1cccc(N2CCN(S(=O)(=O)c3cc(-c4cc(C)no4)ccc3C)CC2C)c1 (centres undefined)
  -0.1%, -1.8, 25.3%, 7.31µM*, -20.2%, -11.8%
- COc1ccccc1CNC(=O)CSC1=Nc2ccccc2N=C(c2ccc(F)cc2)C1
  -1.2%, ·, -2.5%, ·, -1.1%, -7.3%
- Fc1cccc(Cc2c(-c3ccco3)nc3c4ccccc4ccn23)c1
  5.01µM*, -0.8, ·, ·, 5.4%, ·
- Clc1cccc(Cc2c(-c3ccccc3)nc3c4ccccc4ccn23)c1
  5.01µM*, -0.1, ·, ·, ?, ·
- Brc1cccc(-c2nc3c4ccccc4ccn3c2Cc2ccsc2)c1
  11.2µM*, -0.2, ·, ·, -26.0%, ·
- COc1ccc(Cc2c(-c3ccccc3)nc3c4ccccc4ccn23)c(C)c1
  5.01µM*, 2.9, ·, ·, ?, ·
- Clc1cccc(Cc2c(-c3cccc(Cl)c3)nc3c4ccccc4ccn23)c1
  11.1%, -0.9, ·, ·, -5.9%, ·
- COc1ccc2c(c1)c1c(c(=O)n(CCc3ccccc3)c(=O)n1Cc1ccccc1)n2C
  1.0%, ·, -0.4%, 18.2%, 4.2%, -7.7%
- COc1cc(OC)cc(C(=O)Nc2nc(-c3ccccc3)c(-c3ccccc3)o2)c1
  -0.3%, -0.4, -2.3%, 18.4µM*, -25.0%, ?
- C=C1C(=O)O[C@H]2C[C@]3(C)C([C@@H](OC(=O)/C(C)=C/C)[C@H]12)[C@](C)(O)CC[C@H]3O (some centres undefined)
  6.7%, -0.9, 16.4%, ?, 1.2%, -23.5%
- C=C1C(=O)O[C@H]2[C@H]1[C@H](OC(=O)/C(C)=C\C)C[C@]1(CO1)[C@@H]1[C@H](OC(C)=O)C=C(C)[C@]21O
  15.8µM*, -5.2, ·, -3.9%, -2.2%, -4.9%
- NC(=O)C1CCN(C(=O)c2ccc(NC(=O)c3nsc4ccccc34)cc2)CC1
  -2.5%, ·, 3.1%, ·, -0.1%, -19.0%
- COC(=O)Cn1c(=NC(=O)c2sc3ccccc3c2Cl)sc2cc(S(N)(=O)=O)ccc21
  -0.1%, -0.5, -11.0%, ?, 14.1µM*, 8.2%
- COc1ccc(S(=O)(=O)N2CCCC2)cc1C(=O)N1CCCCC1
  -0.1%, -0.9, -5.9%, -10.0%, -4.8%, -0.5%

Part of the list above in order of SMILES length, ascending:
Values run as follows: Nrf2 activator, IL-2 act, miR-21 FLuc, Nrf2 inh, ClpP mod, A549 tox
- Clc1cccc(Cc2c(-c3ccccc3)nc3c4ccccc4ccn23)c1
  5.01µM*, -0.1, ·, ·, ?, ·
- Clc1cccc(Cc2c(-c3cccc(Cl)c3)nc3c4ccccc4ccn23)c1
  11.1%, -0.9, ·, ·, -5.9%, ·
- COc1cc(OC)cc(C(=O)Nc2nc(-c3ccccc3)c(-c3ccccc3)o2)c1
  -0.3%, -0.4, -2.3%, 18.4µM*, -25.0%, ?

Further structures
Values run as follows: Nrf2 activator, IL-2 act, miR-21 FLuc, Nrf2 inh, ClpP mod, A549 tox
- COc1ccc(S(=O)(=O)N2CCCCC2)cc1C(=O)N1CCCCCC1
  0.0%, -3.8, ·, 4.4%, 14.1µM*, -3.7%
- COc1ccc(S(=O)(=O)Nc2ccc(C)cc2)cc1N(C)S(=O)(=O)c1ccc(Cl)cc1
  4.6%, -1.3, ?, 18.4µM*, -1.6%, ?
- COc1ccc(S(=O)(=O)NN(C)C)cc1N(C)S(=O)(=O)c1ccc(Cl)cc1
  -0.9%, 0.8, -8.1%, 5.1%, -10.8%, -3.4%
- COc1ccc(S(=O)(=O)N2CCCCCC2)cc1N(C)S(=O)(=O)c1ccccc1
  -0.2%, -0.4, 14.5%, 23.1µM*, -2.8%, -8.7%
- COc1ccc(CCN(C)C(=O)c2cc(S(=O)(=O)N3CCCCC3)ccc2Cl)cc1OC
  0.8%, 0.5, ·, 16.4µM*, ·, -11.1%
- COc1ccc(S(=O)(=O)N2CCCCC2)cc1N(C)S(=O)(=O)c1ccccc1
  0.2%, -3.9, 0.5%, -6.1%, -4.1%, 13.4%
- CCCCNC(=O)CCCCCn1c(=O)[nH]c2ccccc2c1=O
  0.2%, ·, -9.3%, ·, -17.5%, -2.4%
- O=S(=O)(NC1CCCC(NS(=O)(=O)c2c(F)cccc2F)C1)c1ccc2c(c1)OCCO2 (centres undefined)
  ·, ·, ·, 4.6%, ·, -5.5%
- COc1ccc(S(=O)(=O)NC(C)C)cc1C(=O)N1CCOCC1
  -0.6%, 0.3, 0.4%, -14.7%, 28.2µM*, 2.2%
- COc1ccc(S(=O)(=O)NCc2ccco2)cc1C(=O)N1CCOCC1
  -0.1%, 1.4, -0.2%, 6.1%, ·, 4.1%
- COc1cccc(CN(C)C(=O)c2cc(S(=O)(=O)N3CCN(c4ccccc4)CC3)ccc2Cl)c1
  -0.8%, -7.3, 20.9%, 20.6µM*, -0.7%, -13.9%
- COc1cccc(NC(=O)CN(C)C(=O)c2cccc(S(=O)(=O)N3CCN(c4ccccc4)CC3)c2)c1
  -0.1%, -3.2, 18.3%, ?, -3.6%, -1.1%
- Nc1ccc(-c2nc3ccc(N)cc3[nH]2)cc1
  ?, -0.1, 15.0%, 21.0%, 4.4%, 1.4%
- Nc1ccc2cc3[nH]c4cc(N)ccc4c3nc2c1
  ?, 424.3*, ·, ?, -13.1%, ?
- Cc1cc(C)c(NC(=S)NCCCSC2CCCCC2)c(C)c1
  -0.8%, -3.4, 18.1%, 20.6µM*, ·, -2.7%

Whole records as entered above:
Record of COc1ccc(S(=O)(=O)Nc2ccc(C)cc2)cc1N(C)S(=O)(=O)c1ccc(Cl)cc1 = Nrf2 activator: 4.6%; IL-2 act: -1.3; miR-21 FLuc: ?; Nrf2 inh: 18.4µM*; ClpP mod: -1.6%; A549 tox: ?
Record of COc1cccc(NC(=O)CN(C)C(=O)c2cccc(S(=O)(=O)N3CCN(c4ccccc4)CC3)c2)c1 = Nrf2 activator: -0.1%; IL-2 act: -3.2; miR-21 FLuc: 18.3%; Nrf2 inh: ?; ClpP mod: -3.6%; A549 tox: -1.1%

Carrying on.
Values run as follows: Nrf2 activator, IL-2 act, miR-21 FLuc, Nrf2 inh, ClpP mod, A549 tox
- COc1cccc(NC(=O)NCCCSC2CCCCC2)c1
  0.2%, -0.2, -6.1%, -24.9%, -4.3%, -2.7%
- COc1cc2c[n+](C)c3c4ccccc4ccc3c2cc1OC
  3.3%, -0.5, ·, 16.4µM*, 8.91µM*, -7.1%
- COc1ccc2c(c1)c[n+](C)c1c3cc(OC)c(OC)cc3ccc21
  0.4%, -0.8, ·, ·, -14.2%, ·
- COc1ccc(CC(=O)Nc2ccc(-c3cn4ccccc4n3)cc2)cc1
  -1.2%, -0.1, -37.9%, -10.6%, 28.2µM*, -12.7%
- COc1ccc(CC(=O)Nc2cccc(-c3cn4ccccc4n3)c2)cc1
  3.7%, 0.1, -25.2%, 7.7%, 20µM*, -7.8%
- CCC(=O)Nc1cccc(-c2cn3cccc(C)c3n2)c1
  8.0%, 1.2, -44.5%, ?, 4.0%, 15.3%
- O=C(Nc1cccc(-c2cn3ccccc3n2)c1)C1CC1
  2.3%, -3.2, -25.2%, 9.0%, 28.2µM*, -0.3%
- CCC(=O)Nc1cccc(-c2cn3ccccc3n2)c1
  3.5%, -0.7, -42.9%, 16.7%, 10µM*, 1.8%
- COc1ccc(CC(=O)Nc2ccc(-c3cn4ccccc4n3)cc2)cc1OC
  0.0%, 1.4, -3.8%, -24.8%, ?, -7.7%
- COc1ccc(C(=O)c2oc3ccccc3c2NC(=O)COc2cccc(C)c2C)cc1
  -1.4%, ·, 0.7%, 10.6%, -1.3%, -2.1%
- CCC(=O)N1c2ccccc2CC1C(=O)NCCc1ccc(OC)cc1OC (centres undefined)
  -0.2%, ·, 2.0%, ·, 0.4%, 2.5%
- Cc1cccc2nc(-c3cccc(NC(=O)Cc4ccccc4)c3)cn12
  0.4%, -2.1, -16.1%, -8.0%, 28.2µM*, -12.7%
- CCOc1ccccc1-c1nc(-c2ccc(NC(=O)Cc3ccc(OC)cc3)cc2)no1
  -0.2%, 0.2, 0.6%, 20.6µM*, -17.8%, -28.2%
- COc1ccc(-c2noc(-c3ccccc3OCC(=O)Nc3ccc(C(C)=O)cc3)n2)cc1
  0.5%, ·, 19.6%, ?, -0.8%, 1.4%
